pKd, pKi: −log10 of the molar value.
Tests used:
human CB2R (SNAP-CB2) [1] = target: T1, human CB2R (SNAP-CB2) (Homo sapiens, UniProt P34972); assay: biochemical
human CB2R (SNAP-CB2) [2] = target: T1, human CB2R (SNAP-CB2); assay: biochemical; format: binding; design: truncated CB1R (CB1R91-472) and full-length CB2R (CB2R1–360); 5HT3A signal peptide (N, cleaved yes); expressed in transfected cells; membranes; conditions: 37°C, D77 900 nM, 15-min incubation

The chains behind the UniProt entries cited, without tags or fusion partners.
UniProt P34972, whole entry: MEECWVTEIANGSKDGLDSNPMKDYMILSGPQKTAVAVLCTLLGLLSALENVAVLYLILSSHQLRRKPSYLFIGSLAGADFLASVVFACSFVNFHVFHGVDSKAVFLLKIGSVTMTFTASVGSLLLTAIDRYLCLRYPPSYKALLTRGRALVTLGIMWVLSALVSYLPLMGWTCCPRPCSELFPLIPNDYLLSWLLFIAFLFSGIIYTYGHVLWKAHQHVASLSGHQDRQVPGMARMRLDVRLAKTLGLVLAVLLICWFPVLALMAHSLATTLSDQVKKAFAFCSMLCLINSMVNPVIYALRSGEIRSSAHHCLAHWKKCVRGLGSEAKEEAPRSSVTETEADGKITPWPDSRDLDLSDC

In the case of `CCCCC/C=C\C/C=C\C/C=C\C/C=C\CCCC(=O)NCCO` [Anandamide, anandamide], the pKd (human CB2R (SNAP-CB2) [1]; pK d (kinetic), 37°C) was 6.20, the pKd (human CB2R (SNAP-CB2) [1]; pKd (kinetic), 25°C) was 6.06 and the pKi (human CB2R (SNAP-CB2) [2]) was 6.11.

Source: paper PMC12015242, “A universal cannabinoid CB1 and CB2 receptor TR-FRET kinetic ligand-binding assay” (Frontiers in Pharmacology, 2025)
